Source: US4548938A, “5-H-1,3,4-thiadiazolo[3,2-a]pyrimidin-5-one compounds” (Janssen Pharmaceutica N.V., priority 1985, dated 1985)

tested on: apomorphine-induced emesis; experiment: apomorphine test in dogs (APO-dog); format: in vivo; details: s.c.; beagle dogs; apomorphine 0.31 mg/kg s.c. 1 hour after compound; protection from emesis

Row | SMILES | ED50 (APO)-dog [mg/kg]
1 | Cc1nc2scc(C)n2c(=O)c1CCN1CCC(C(=O)c2ccc(F)cc2)CC1 [compound 4, 6-[2-[4-(4-fluorobenzoyl)-1-piperidinyl]ethyl]-3,7-dimethyl-5H-thiazolo[3,2-a]pyrimidin-5-one] | 0.06
2 | Cc1nc2sc3ccccc3n2c(=O)c1CCN1CCC(c2c[nH]c3ccccc23)CC1 [compound 13, 3-[2-[4-(1H-indol-3-yl)-1-piperidinyl]ethyl]-2-methyl-4H-pyrimido[2,1-b]benzothiazol-4-one] | 0.06
3 | Cc1nn2c(=O)c(CCN3CCC(c4c[nH]c5ccccc45)CC3)c(C)nc2s1 [compound 14, 6-[2-[4-(1H-indol-3-yl)-1-piperidinyl]ethyl]-2,7-dimethyl-5H-1,3,4-thiadiazolo[3,2-a]pyrimidin-5-one] | 0.06
